Measurements reported in US8835458B2 (Hanmi Science Co., Ltd, priority 2010, dated 2014).

How the values were obtained:
[1] = system: Balb/c3t3 fibroblasts; assay: Toxicity to normal cells (SRB); format: cell-based, mouse; settings: normal cell line, 72 hours, read-out: BalB/C (GI50)
Protocol: (§1) MDA-MB-231 breast cancer cell lines (ATCC #HTB-26) and BxPC-3 pancreas cancer cell lines (ATCC #CRL 1687), which have been reported to express XIAP, were obtained from ATCC (American type culture collection; Rockville, Md.). MDA-MB-231 cell lines were incubated in L-15 medium supplemented with 10% FBS and 1% penicillin/streptomycin (Gibco BRL) at a T-75 cm^2 growth flask. In addition, BxPC-3 cell lines were incubated in RPMI medium supplemented with 10% FBS and 1% penicillin/streptomycin. For experiments of toxicity to normal cells, fibroblasts Hs27 (ATCC #CRL 1634) and Balb/c3t3 (ATCC #CCL 163) were used. […]
(§2) Cell viabilities of MDA-MB-231 cell lines were measured at an absorbance of 490 nm using CellTiter 96™ AQueous One Solution Cell proliferation Assay (MTS, Promega), and cell viabilities of BxPC-3 and normal cell lines were measured by fixing cells with 10% TCA (trichloroacetic acid), staining with SRB (sulforhodamine B), and measuring at 540 nm. […] The growth rates of cancer cells were calculated from following Equation 1 or 2. […] In Equations 1 and 2, Tz refers to a density of untreated cells, which is an absorbance in 0% cell growth groups. […]

[2] = system: caspase 3/7; assay: Evaluation of caspase activity (Caspase-Glo 3/7 Assay Kit); format: cell-based; settings: MDA-MB-231 cells, 12 hours, compared to untreated MDA-MB-231 cells; 0.5, 1, 5 μM tested
Protocol: (§3) MDA-MB-231 breast cancer cells (ATCC #HTB-26) were plated in 96-well plates at a density of 1.0 1.5×10^4 cells/well. […] Then, media were removed and the cells were washed two times with PBS at 4° C. The cells were treated with a solution of the analysis samples and media (1:1) in an amount of 140 μL/well using Caspase-GloTM 9 Assay Kit (Cat#. […]; Promega, USA) and Caspase-GloTM 3/7 Assay Kit (Cat#. […]; Promega, USA). After the cells were incubated at 37° C. for 2 hours, luminescence was measured using InfiniteTM M1000 multi reader (Tecan). […] The values were represented as “***” for six fold or more, “**” for 4 fold to below 6 fold, and “*” for 1 fold to below 4 fold, as compared to that of untreated, normal MDA-MB-231 breast cancer cell lines.

[3] = system: caspase 9; assay: Evaluation of caspase activity (Caspase-Glo 9 Assay Kit); format: cell-based; settings: MDA-MB-231 cells, 16 hours, compared to untreated MDA-MB-231 cells; 0.5, 1, 5 μM tested
Protocol: as §3

[4] = system: MDA-MB-231 breast cancer cell lines; assay: Evaluation of inhibition on cell growth (MTS); format: cell-based; settings: 120 hours
Protocol: as §1, §2

[5] = system: Hs27 fibroblasts; assay: Toxicity to normal cells (SRB); format: cell-based, human; settings: normal cell line, 72 hours
Protocol: as §1, §2

Caspase-3 [2]: ** (4 fold to below 6 fold)
Caspase-9 [3]: ** (4 fold to below 6 fold)
GI50 [4]: 0.1 to 1 µM
Compound: C[C@H](N)C(=O)N[C@@H](CCCNC(=N)N)C(=O)N1CCC[C@H]1C(=O)N[C@@H](Cc1ccccc1)C(N)=O [Control, alanine-alginine-proline-phenylalanine-NH2, reference compound]
GI50 [1]: > 10 µM
GI50 [5]: > 10 µM
